Laboratory results: patent US20160346313A1, “USES OF OLIGOURONATES IN CANCER TREATMENT” (NORWEGIAN UNIVERSITY OF SCIENCE AND TECHNOLOGY, priority 2013, published 2016)

Tested on: Capan-2 human pancreas tumour xenograft
Assay: Capan-2 human pancreas tumour xenograft model: tumour weight, with statistical analysis (ANOVA by day, Eav, log scale, exponential growth model)
Format: in vivo, Female Athymic Nude mice
Conditions: Day 4; Gemcitabine 5
Description: The purpose of this study was to evaluate the anti-tumour activity of G-Block as an enhancer in combination with gemcitabine in the Capan-2 human pancreas tumour xenograft model. Gemcitabine was dosed at a level that would not be curative and allow for proof of concept evaluation in this model. Efficacy was assessed by comparison of tumour weights of treated groups with the vehicle control group on Day 11 and 74 and between combination groups and their respective single agents on Day 11 and 74.
G-Block (Lot #PolyG 230712-Dp10, 95%G) was received as a white hygroscopic amorphous powder from NTNU Technology Transfer AS (Trondheim, Norway) and stored desiccated at room temperature until use. NTNU's G-Block was dissolved in MilliQ water to a concentration of 70 mg/ml to be used as the stock solution. […]
Female mice were inoculated subcutaneously in the right flank with 0.1 mL of a 50% RPMI/50% Matrigel™ (BD Biosciences, Bedford, Mass.) mixture containing a suspension of Capan-2 tumor cells (approximately 5.0×10^6 cells/mouse). Seven days following inoculation, tumors were measured using calipers and tumor weight was calculated using the animal study management software, Study Director V.2.1.1 (Study Log)^1. […] Body weights were recorded when the mice were randomized and were taken twice weekly thereafter in conjunction with tumor measurements. […]

Compound: Nc1ccn([C@@H]2O[C@H](CO)[C@@H](O)C2(F)F)c(=O)n1 [Gemcitabine 5, Gemcitabine]
- Ratio vs Vehicle: 1.08
